System: Acanthamoeba castellanii trophozoites
Experiment: CellTiter-Glo 2.0 trophocidal assay, A. castellanii
Assay type: cell-based
Conditions: SI = (IC50 A549)/(IC50 Amoeba)
Procedure: This isolate was also purchased from ATCC. Trophozoites were routinely grown axenically at 27 °C in Protease Peptone-Glucose Media (PG) in non-vented 75 cm^2 tissue culture flasks (Olympus, El Cajon, CA, USA), until the cells were 80–90% confluent. For sub-culturing, cells were mechanically harvested to detach the cells from the culture flasks. The cells were collected by centrifugation at 4000 rpm at 4 °C.
The trophocidal activity of compounds was assessed using the CellTiter-Glo 2.0 luminescent viability assay (Promega, Madison, WI, USA), as previously described. Trophozoites were routinely cultured as described above and only logarithmic trophozoites were used. […] Initially all compounds were assessed in a single-point drug screen at 10 and 1 μM, as previously described. […] We used this process to reduce the number of potential false positives. Drugs were cherry-picked, dissolved in the media specific to each parasite, and assessed in twofold serial dilutions from the highest concentration of 10 μM. All assays were incubated at each of the parasites’ representative growth temperatures, described above, for 72 h. […] The adenosine triphosphate (ATP) luminescent signal (relative light units; RLUs) was measured at 490 nm with a SpectraMax I3X plate reader (Molecular Devices, Sunnyvale, CA, USA). […]

Compound: CC(=O)N1CCN(c2ccc(OCC3COC(Cn4ccnc4)(c4ccc(Cl)cc4Cl)O3)cc2)CC1 (stereo not shown) [Ketoconazole]
- Selectivity Index (A549 IC50/A. castellanii IC50): ≥8.10

— PMC7344389, “Discovery of Anti-Amoebic Inhibitors from Screening the MMV Pandemic Response Box on Balamuthia mandrillaris, Naegleria fowleri, and Acanthamoeba castellanii” (Pathogens, 2020)
